Assay [1] has as its system OE33 Esophageal Adenocarcinoma cell line. Put plainly: OE33 Colony Formation Assay. The following applies: read-out: OE33 Colony Formation Assay EC50; 200 cells/well, compound every 48 hours for 7 days, CellTiter-Glo; tested form: HCl. As for the experimental part: OE33 Colony Formation Assay:
The OE33 Esophageal Adenocarcinoma cell line was cultured and plated into 96-well tissue culture plates under sparse conditions (200 cells/well). Test compounds were serially diluted in DMSO and then into culture media (final DMSO concentration=0.1%). Compound/media was then added to cells every 48 hours for a total of 7 days. Clonogenic growth was assessed using the CellTiter-Glo reagent, according to manufacturer (Promega) specifications. Percent inhibition was calculated as the percent of luminescence normalized to control (0.1% DMSO) wells. Nonlinear regression curve fitting was performed using GraphPad Prism software to determine EC50's.
(In general: In ATP-based viability assays light output follows the ATP content of the culture.)

Protein sequences, listed by entry. Tags and fused reporters are not part of them. Residues count along the entry.
UniProt P46531, 1754-2555 limits assumed: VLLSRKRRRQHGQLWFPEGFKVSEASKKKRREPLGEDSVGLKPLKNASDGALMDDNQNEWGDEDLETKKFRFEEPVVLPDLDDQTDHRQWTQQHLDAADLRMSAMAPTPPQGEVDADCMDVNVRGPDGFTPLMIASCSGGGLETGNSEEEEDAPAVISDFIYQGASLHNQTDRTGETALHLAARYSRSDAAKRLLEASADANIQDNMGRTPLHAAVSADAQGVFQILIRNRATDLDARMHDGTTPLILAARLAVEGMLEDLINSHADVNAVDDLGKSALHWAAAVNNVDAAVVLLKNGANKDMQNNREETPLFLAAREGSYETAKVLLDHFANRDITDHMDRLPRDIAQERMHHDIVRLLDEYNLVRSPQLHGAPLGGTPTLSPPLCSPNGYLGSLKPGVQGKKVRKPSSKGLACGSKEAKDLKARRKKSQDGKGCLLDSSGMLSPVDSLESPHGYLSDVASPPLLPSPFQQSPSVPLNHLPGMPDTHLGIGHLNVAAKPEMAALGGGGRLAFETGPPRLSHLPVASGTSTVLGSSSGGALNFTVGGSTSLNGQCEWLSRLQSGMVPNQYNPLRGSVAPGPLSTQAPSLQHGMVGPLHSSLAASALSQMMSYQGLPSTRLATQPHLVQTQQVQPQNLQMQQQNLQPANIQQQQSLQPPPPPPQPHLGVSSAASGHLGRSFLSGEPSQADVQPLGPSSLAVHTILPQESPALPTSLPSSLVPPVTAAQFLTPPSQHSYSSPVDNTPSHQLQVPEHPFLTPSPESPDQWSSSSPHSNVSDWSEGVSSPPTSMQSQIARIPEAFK

Another assay has as its target Notch1 (Homo sapiens, UniProt P46531). As to the kind of experiment: Notch1 Reporter Assay (CSL-responsive luciferase, doxycycline-induced Notch-ICD in 293A cells). The following applies: read-out: Notch1 Reporter Assay IC50, 25 ng/mL Dox, 24 h, luciferase normalized to cell viability, tested form: HCl. The protocol: 293A cells expressing 1) pCMV-Tet-On 3G, 2) pLV[Tet]-Puro-TRE3G>Notch1-ICD, 3) pLV[Tet]-Puro-TRE3G>Notch2-ICD, 4) pLV[Tet]-Puro-TRE3G>Notch3-ICD, and 5) pCSL-RElement-Luc were used. When Doxycycline is added, the Tet-ON gene activates expression of hNotch1ICD, which together with endogenous NTC components binds to CSL responsive elements (pCSL-RElement-Luc) and expresses luciferase. 1×10^4 cells are plated in 100 μL (96-well format). 24 h later, compounds (10 mM stock in DMSO) are diluted in DMSO to 200×, then added (5 ul into 1 mL) to cell culture media containing 50 ng/mL Dox. This is then added 1:1 to cells. Final DMSO=0.25%, Dox=25 ng/mL. After 24 h, media is discarded, and cells are lysed in passive lysis buffer (Promega). Cells are rocked at room temperature for 15 min and then lysate is divided for luciferase assay (Luciferase Assay System, Promega) and cell viability (CellTiter Glo 2.0, Promega). Raw luciferase is normalized to cell viability, and then scaled to DMSO wells. Results are analyzed and IC50's are determined in GraphPad by nonlinear regression curve fitting (4 parameter) of dose response curves.
(In general: A reporter such as luciferase makes a cellular process visible.)

Counter-ions that a name gives are not always drawn.

As usually defined, the EC50 is the midpoint of the concentration-response curve.

Consider `COc1cc(-c2cc(C(F)(F)F)cc3c2n(C)c(=O)n3CC(=O)Nc2ccc(SC)cc2)cc(F)c1OCc1nnc[nH]1` [SSTN-498, 2-(4-(4-((4H-1,2,4-triazol-3-yl)methoxy)-3-fluoro-5-methoxyphenyl)-3-methyl-2-oxo-6-(trifluoromethyl)-2,3-dihydro-1H-benzo[d]imidazol-1-yl)-N-(4-(methylthio)phenyl)acetamide hydrochloride], for which the EC50 in assay [1] was determined as 3 µM. Moreover, the IC50 at Notch1 amounted to 8.1 µM.

The record behind these values is patent US20230183215A1, “Notch Inhibitors and Uses Thereof” (StemSynergy Therapeutics, Inc., priority 2020, published 2023).
